# Permeability data for macrocyclic peptides

Source: CycPeptMPDB (Li et al. 2023), which took these values from Townsend et al. 2020, doi:10.26434/chemrxiv.13335941.v1.

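Lipid, pH, incubation time, direction and concentration are not recorded in the data file. Other peptides of the study may be missing here. Entries at the database's floor value (log10 P of -10) are not listed.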

PAMPA measures passive passage through an artificial lipid membrane. Values are log10 P with P in cm/s, so -5 is more permeable than -7.

PAMPA (log10 cm/s) | SMILES
-6.14 | CC(C)C[C@@H]1C(=O)N2CCC[C@H]2C(=O)N(C)[C@H](CC(C)C)C(=O)N[C@@H](Cc2ccccc2)C(=O)N2CCC[C@H]2C(=O)N(C)[C@@H](C)C(=O)N(C)[C@@H](CC(C)C)C(=O)N1C
-4.54 | CC(C)C[C@H]1C(=O)N[C@@H](Cc2ccccc2)CC(=O)N2CCC[C@H]2C(=O)N(C)[C@@H](CC(C)C)C(=O)N[C@@H](Cc2ccccc2)C(=O)N(C)[C@@H](C)C(=O)N1C
-5.23 | CC(C)C[C@@H]1NC(=O)[C@@H](CC(C)C)NC(=O)[C@@H](C)N(C)C(=O)[C@H]2CCCN2C(=O)[C@H](Cc2ccccc2)NC(=O)[C@H](CC(C)C)N(C)C(=O)[C@H]2CCCN2C1=O
-6.32 | CCCN1CC(=O)N(C)[C@@H](CC(C)C)C(=O)N(C)[C@@H](CC(C)C)C(=O)N2CCC[C@@H]2C(=O)N(Cc2ccccc2)CC(=O)N[C@@H](Cc2ccccc2)C(=O)N2CCC[C@@H]2C1=O
-6.59 | CC(C)C[C@H]1NC(=O)[C@@H]2CCCN2C(=O)[C@H](CC(C)C)N(C)C(=O)[C@@H](CC(C)C)NC(=O)[C@H](C)NC(=O)[C@H](Cc2ccccc2)NC1=O
-5.21 | CC(C)C[C@@H]1C(=O)N[C@@H](Cc2ccccc2)C(=O)N2CCC[C@H]2C(=O)N[C@@H](Cc2ccccc2)CC(=O)N(C)[C@@H](CC(C)C)C(=O)N(C)[C@@H](CC(C)C)C(=O)N2CCC[C@@H]2C(=O)N1C
-5.97 | CCCN1CC(=O)N[C@H](CC(C)C)C(=O)N[C@H](CC(C)C)C(=O)N2CCC[C@H]2C(=O)N(C)[C@H](CC(C)C)C(=O)N[C@@H](Cc2ccccc2)C(=O)N2CCC[C@@H]2C1=O
-6.55 | CCCN1CC(=O)N[C@@H](CC(C)C)C(=O)N[C@@H](CC(C)C)C(=O)N2CCC[C@@H]2C(=O)N[C@@H](CC(C)C)C(=O)N[C@@H](Cc2ccccc2)C(=O)N2CCC[C@H]2C1=O
-5.43 | CC(C)C[C@@H]1NC(=O)[C@H](CC(C)C)N(C)C(=O)[C@H](C)N(C)C(=O)[C@H]2CCCN2C(=O)[C@H](Cc2ccccc2)NC(=O)[C@@H](CC(C)C)NC(=O)[C@H]2CCCN2C1=O
-5.90 | CC(C)C[C@@H]1C(=O)N(Cc2ccccc2)CC(=O)N2CCC[C@H]2C(=O)N[C@H](CC(C)C)C(=O)N[C@@H](Cc2ccccc2)C(=O)N2CCC[C@H]2C(=O)N[C@@H](C)C(=O)N1C
-5.68 | CC(C)C[C@@H]1NC(=O)[C@H](CC(C)C)N(C)C(=O)[C@H](C)NC(=O)[C@@H]2CCCN2C(=O)[C@H](Cc2ccccc2)NC(=O)[C@@H](CC(C)C)N(C)C(=O)[C@@H]2CCCN2C1=O
-5.78 | CC(C)C[C@@H]1NC(=O)C[C@H](Cc2ccccc2)NC(=O)[C@H]2CCCN2C(=O)[C@H](Cc2ccccc2)NC(=O)[C@@H](CC(C)C)N(C)C(=O)[C@H]2CCCN2C(=O)[C@H](CC(C)C)N(C)C1=O
-6.26 | CC(C)C[C@@H]1C(=O)N(Cc2ccccc2)CC(=O)N2CCC[C@@H]2C(=O)N(Cc2ccccc2)CC(=O)N[C@@H](Cc2ccccc2)C(=O)N2CCC[C@H]2C(=O)N(C)[C@H](C)C(=O)N1C
-5.56 | CC(C)C[C@@H]1NC(=O)[C@@H]2CCCN2C(=O)[C@H](CC(C)C)NC(=O)[C@@H](CC(C)C)N(C)C(=O)[C@@H](C)N(C)C(=O)[C@H]2CCCN2C(=O)[C@H](Cc2ccccc2)NC1=O
-5.57 | CC(C)C[C@@H]1NC(=O)[C@@H](CC(C)C)N(C)C(=O)C[C@H](Cc2ccccc2)NC(=O)[C@@H]2CCCN2C(=O)[C@H](Cc2ccccc2)NC(=O)[C@@H](CC(C)C)NC(=O)[C@H]2CCCN2C1=O
-6.38 | CC(C)C[C@H]1NC(=O)[C@H](C)N(C)C(=O)[C@@H]2CCCN2C(=O)[C@H](Cc2ccccc2)NC(=O)CN(Cc2ccccc2)C(=O)[C@@H]2CCCN2C(=O)[C@@H](CC(C)C)NC1=O
-5.87 | CC(C)C[C@H]1NC(=O)[C@H](C)N(C)C(=O)[C@H]2CCCN2C(=O)[C@H](Cc2ccccc2)NC(=O)CN(Cc2ccccc2)C(=O)[C@@H]2CCCN2C(=O)CN(Cc2ccccc2)C1=O
-4.92 | CC(C)C[C@@H]1NC(=O)[C@@H](CC(C)C)N(C)C(=O)[C@H](C)NC(=O)[C@H](Cc2ccccc2)NC(=O)[C@@H](CC(C)C)N(C)C(=O)[C@H]2CCCN2C1=O
-5.69 | CC(C)C[C@@H]1NC(=O)[C@@H]2CCCN2C(=O)C[C@H](Cc2ccccc2)NC(=O)[C@@H](CC(C)C)NC(=O)C[C@H](Cc2ccccc2)NC(=O)[C@H](Cc2ccccc2)NC1=O
-5.94 | CC(C)C[C@@H]1NC(=O)[C@H](C)N(C)C(=O)[C@H]2CCCN2C(=O)[C@H](Cc2ccccc2)NC(=O)CN(Cc2ccccc2)C(=O)[C@H]2CCCN2C(=O)C[C@H](Cc2ccccc2)NC1=O

The 3 lowest values of PAMPA among the entries above:

SMILES | PAMPA (log10 cm/s)
CC(C)C[C@H]1NC(=O)[C@@H]2CCCN2C(=O)[C@H](CC(C)C)N(C)C(=O)[C@@H](CC(C)C)NC(=O)[C@H](C)NC(=O)[C@H](Cc2ccccc2)NC1=O | -6.59
CCCN1CC(=O)N[C@@H](CC(C)C)C(=O)N[C@@H](CC(C)C)C(=O)N2CCC[C@@H]2C(=O)N[C@@H](CC(C)C)C(=O)N[C@@H](Cc2ccccc2)C(=O)N2CCC[C@H]2C1=O | -6.55
CC(C)C[C@H]1NC(=O)[C@H](C)N(C)C(=O)[C@@H]2CCCN2C(=O)[C@H](Cc2ccccc2)NC(=O)CN(Cc2ccccc2)C(=O)[C@@H]2CCCN2C(=O)[C@@H](CC(C)C)NC1=O | -6.38